Experimental data taken from PubChem BioAssay AID637 (SRMLSC, 2007).
This is a selection; strong and weak results do not stand in their true shares. Some results for these compounds are left out of this collection, so the calls shown say nothing about other tests. The source made the active and inactive calls. Cut-off read from the data, not from the text of the source: active = inhibition above about 30%; inactive = the rest.

Assay: growth suppression of yeast trafficking mutant, preliminary HTS, modulators of trafficking downstream of Golgi apparatus project, 1536-format plate, OD 615 nm (AID 637)
Settings: yeast transport mutant growth, absorbance 615 nm, 18 h; hits give high values
With O=C(OC1CN2CCC1CC2)C(CO)(c1ccccc1)c1ccccc1 (stereo unspecified) the inhibition was inactive: 3.06%.
